Reference: ChEMBL document CHEMBL2375225, “Structure-activity relationship of 5-chloro-2-methyl-3-(1,2,3,6-tetrahydropyridin-4-yl)-1H-indole analogues as 5-HT(6) receptor agonists” (Eur J Med Chem, 2013)

Protein sequences, listed by entry. Tags and fused reporters are not part of them.
UniProt P19327, whole entry: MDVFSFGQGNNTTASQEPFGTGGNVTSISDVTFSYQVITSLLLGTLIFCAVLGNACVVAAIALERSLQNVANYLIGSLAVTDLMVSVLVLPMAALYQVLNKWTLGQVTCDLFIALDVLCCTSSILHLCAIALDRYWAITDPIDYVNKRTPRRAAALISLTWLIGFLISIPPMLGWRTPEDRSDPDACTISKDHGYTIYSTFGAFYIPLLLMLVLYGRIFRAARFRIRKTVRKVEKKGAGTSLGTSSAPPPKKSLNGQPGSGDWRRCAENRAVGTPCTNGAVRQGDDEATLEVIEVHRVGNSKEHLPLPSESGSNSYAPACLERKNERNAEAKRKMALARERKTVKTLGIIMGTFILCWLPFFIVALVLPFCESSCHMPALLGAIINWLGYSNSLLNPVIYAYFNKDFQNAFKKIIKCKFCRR

Molecular target: 5-hydroxytryptamine receptor 1A (Rattus norvegicus, UniProt P19327)
Experiment: Displacement of [3H]-8-OH-DPAT from rat 5HT1A receptor

## COc1ccc2[nH]cc(C3=CCNCC3)c2c1 [RU-24969]
  IC50: 4 nM
